Results reported in PubChem BioAssay (Tox21).
Values joined by “and” are separate entries in the source; they are usually repeats but may differ in a detail not shown here. Equal values may be shown once. Only a part is listed here, and it is no random draw. Inconclusive results are not listed. The source holds several records for some structures; these can differ, active in one and inactive in another. Active and inactive are the calls of the source. Unless noted, calls come from the whole dose curve; as a rule, active = well fitted curve in the direction sought with a large enough effect in the repeat runs; inconclusive = weak or mixed curves; inactive = no such curve, though single readings can be large; an effect the other way counts as inactive or inconclusive.

Chains of the proteins cited; added tags and fusions are not shown.
UniProt P16473, whole entry: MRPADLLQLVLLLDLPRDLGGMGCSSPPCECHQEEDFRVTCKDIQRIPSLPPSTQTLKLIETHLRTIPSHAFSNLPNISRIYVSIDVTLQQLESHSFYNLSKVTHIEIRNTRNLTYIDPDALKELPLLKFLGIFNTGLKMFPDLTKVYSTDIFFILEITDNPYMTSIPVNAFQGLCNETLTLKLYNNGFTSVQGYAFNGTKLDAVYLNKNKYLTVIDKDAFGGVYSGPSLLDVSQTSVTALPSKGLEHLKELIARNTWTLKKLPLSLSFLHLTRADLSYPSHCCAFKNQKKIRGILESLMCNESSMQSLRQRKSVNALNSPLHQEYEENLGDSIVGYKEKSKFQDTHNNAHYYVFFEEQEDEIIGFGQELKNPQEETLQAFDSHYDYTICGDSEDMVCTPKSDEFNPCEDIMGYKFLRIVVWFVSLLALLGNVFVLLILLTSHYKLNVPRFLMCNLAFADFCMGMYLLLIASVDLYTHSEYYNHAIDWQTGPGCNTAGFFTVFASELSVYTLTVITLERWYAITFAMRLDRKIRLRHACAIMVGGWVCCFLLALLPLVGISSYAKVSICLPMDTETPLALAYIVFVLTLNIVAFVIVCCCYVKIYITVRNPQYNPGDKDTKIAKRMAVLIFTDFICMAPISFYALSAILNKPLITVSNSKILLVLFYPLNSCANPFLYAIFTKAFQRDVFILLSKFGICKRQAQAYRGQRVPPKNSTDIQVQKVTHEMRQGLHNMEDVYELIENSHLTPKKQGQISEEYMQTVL

Assays:
[1] = qHTS assay to identify small molecule antagonists of the estrogen related receptor signaling pathway with the pleiotropic PPARgamma coactivator (PGC) from Tox21 10K library - cell viability counter screen (AID 1224840; active = well fitted cell-killing curve with a large enough effect in the repeat runs, not every such curve was filed as active; note: nearly all actives have a fitted effect of over 40% in size); settings: PGC/ERR reporter cells viability, CellTiter-Fluor, 17.5 h; at 92.4 µM (top of the series)
Procedure, shortened: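 Here the PGC/ERR cells serve as a cytotoxicity control: they are exposed to compounds for 17.5 hours at 37 C, and live-cell signal is quantified using CellTiter-Fluor fluorescence.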

[2] = qHTS assay to identify small molecule antagonists of the estrogen related receptor signaling pathway with the pleiotropic PPARgamma coactivator (PGC) from Tox21 10K library (AID 1224841; call rule not given here; note: actives are mostly falling curves and most rising ones were filed inactive; nearly all actives have a fitted effect of over 50% in size); settings: PGC/ERR reporter cell line, ONE-Glo luciferase, 18 h; series mostly up to 92.4 µM
[3] = qHTS assay to identify small molecule agonists of the estrogen related receptor signaling pathway with the pleiotropic PPARgamma coactivator (PGC) from Tox21 10K library (AID 1224842); settings: PGC/ERR reporter cell line, luciferase ONE-Glo, 18 h; at 92.4 µM (top of the series); note: nearly all actives have a fitted effect of over 15% in size
Procedure, shortened: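 PGC/ERR reporter cell line, 2,000 cells per well, incubated 6 h at 37 C before 23 nL compound in DMSO was added. After 18 h at 37 C, One-Glo luminescence read following 30 min at room temperature.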

[4] = molecular target: Thyrotropin receptor (Homo sapiens) (UniProt P16473); assay: qHTS assay to identify small molecule agonists of the thyroid stimulating hormone receptor (TSHR) signaling pathway (AID 1224843; calls by dose curve; note: nearly all actives have a fitted effect of over 45% in size); settings: TSHR-HEK293 cells, cAMP HTRF, agonist mode, 30 min; at 92.4 µM (top of the series)
[5] = qHTS assay to identify small molecule agonists of H2AX - cell viability counter screen (AID 1224847; calls by dose curve;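 note: wild-type CHO-K1 cells; top concentration of the series differs between compounds; nearly all actives have a fitted effect of over 30% in size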); settings: CHO-K1 viability, CellTiter-Glo luminescence, 3 h; at 154 µM (top of the series) unless noted
Procedure, shortened: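 Cells plated first: CHO-K1, 1000 per well in 10% FBS medium, incubated overnight at 37C. Then 15-point compound titration added (final DMSO 0.76%) for 3 hr. Finally CellTiter-Glo added and luminescence read.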

[6] = qHTS assay to identify small molecule agonists of the estrogen related receptor (ERR) signaling pathway from Tox21 library (AID 1224849; calls by dose curve; note: nearly all actives have a fitted effect of over 15% in size); settings: ERR reporter cell line, ONE-Glo luciferase, 18 h; at 92.4 µM (top of the series)
Procedure, shortened: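 Six hours post-seeding at 37 C/5% CO2, ERR cells receive DMSO-solubilised compounds; after 18 h at 37 C, ONE-Glo reagent is applied and luminescence recorded.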

[7] = qHTS RealTime-Glo MT Cell Viability Assay in HepG2 cells - 24 hour (AID 1224867); settings: RealTime-Glo luminescence, at 76.8 µM (top of the series); note: nearly all actives have a fitted effect of over 50% in size
Procedure, shortened: (§1)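 HepG2 cells were seeded at 600 cells/well together with NanoLuc luciferase and a cell-permeant prosubstrate, preincubated 5 h at 37 C/5% CO2, then pin-dosed with compounds in DMSO. Nonlytic luminescence from viable cells was read at each time point.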

[8] = qHTS RealTime-Glo MT Cell Viability Assay in HEK293 cells - 32 hour (AID 1224868); settings: RealTime-Glo luminescence, at 76.8 µM (top of the series); note: top concentration of the series differs between compounds; nearly all actives have a fitted effect of over 50% in size
Procedure, shortened: (§2)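 HEK293 cells were seeded at 600 cells/well together with NanoLuc luciferase and cell-permeant prosubstrate, preincubated 5 h at 37 C/5% CO2, then given compound in DMSO by pintool. Luminescence from viable-cell prosubstrate reduction was read repeatedly over 40 h.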

[9] = A CellTox Green Cytotoxicity Assay to monitor cytotoxicity in HEK293 cells - 0 hour (AID 1224869); settings: CellTox Green fluorescence; series mostly up to 76.8 µM; note: nearly all actives have a fitted effect of over 50% in size; note: potency is the fitted concentration of half-maximal effect
Procedure, shortened: (§3)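 Seeding of HEK293 cells together with cytotoxicity dye preceded a 5 h incubation at 37 C/5% CO2. Test compounds in DMSO were then added and fluorescence monitored across 40 h.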

[10] = qHTS RealTime-Glo MT Cell Viability Assay in HepG2 cells - 40 hour (AID 1224870); settings: RealTime-Glo luminescence; at 76.8 µM (top of the series) unless noted; note: nearly all actives have a fitted effect of over 50% in size
Procedure, shortened: (§4)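 HepG2 cells (600/well) mixed with RealTime-Glo MT reagent, settled 5 h at 37 C/5% CO2 before compound addition. Nonlytic NanoLuc luminescence from viable-cell prosubstrate reduction read repeatedly during 40 h treatment at 37 C.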

[11] = A CellTox Green Cytotoxicity Assay to monitor cytotoxicity in HEK293 cells - 40 hour (AID 1224871); settings: CellTox Green fluorescence; series mostly up to 76.8 µM; note: nearly all actives have a fitted effect of over 45% in size; note: potency is the fitted concentration of half-maximal effect
Procedure, shortened: as §3

[12] = qHTS RealTime-Glo MT Cell Viability Assay in HEK293 cells - 16 hour (AID 1224872); settings: RealTime-Glo luminescence; at 76.8 µM (top of the series) unless noted
Procedure, shortened: as §2

[13] = qHTS RealTime-Glo MT Cell Viability Assay in HepG2 cells - 8 hour (AID 1224873); settings: RealTime-Glo luminescence; at 76.8 µM (top of the series) unless noted; note: nearly all actives have a fitted effect of over 55% in size
Procedure, shortened: as §4

[14] = A CellTox Green Cytotoxicity Assay to monitor cytotoxicity in HEK293 cells - 24 hour (AID 1224875); settings: CellTox Green fluorescence; series mostly up to 76.8 µM; note: nearly all actives have a fitted effect of over 45% in size
Procedure, shortened: as §3

[15] = qHTS RealTime-Glo MT Cell Viability Assay in HepG2 cells - 32 hour (AID 1224877); settings: RealTime-Glo luminescence, at 76.8 µM (top of the series); note: nearly all actives have a fitted effect of over 55% in size
Procedure, shortened: as §1

[16] = A CellTox Green Cytotoxicity Assay to monitor cytotoxicity in HepG2 cells - 24 hour (AID 1224878); settings: CellTox Green fluorescence; series mostly up to 76.8 µM; note: nearly all actives have a fitted effect of over 45% in size; note: potency is the fitted concentration of half-maximal effect
Procedure, shortened: (§5)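 Nonlytic assay: viable cells exclude the dye, so fluorescence scales with cell death. HepG2 at 600 cells/well, compounds added after 5 h, signal read across 40 h.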

[17] = A CellTox Green Cytotoxicity Assay to monitor cytotoxicity in HepG2 cells - 40 hour (AID 1224879); settings: CellTox Green fluorescence; series mostly up to 76.8 µM; note: nearly all actives have a fitted effect of over 40% in size; note: potency is the fitted concentration of half-maximal effect
Procedure, shortened: as §5

[18] = qHTS RealTime-Glo MT Cell Viability Assay in HEK293 cells - 0 hour (AID 1224880); settings: RealTime-Glo luminescence; at 76.8 µM (top of the series) unless noted
Procedure, shortened: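 Tox21 screen in HEK293 using RealTime-Glo MT chemistry, with cells and reagent co-dispensed. Luminescence proportional to viable cell number was captured at intervals during 40 h compound exposure at 37 C.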

[19] = A CellTox Green Cytotoxicity Assay to monitor cytotoxicity in HepG2 cells - 0 hour (AID 1224882); settings: CellTox Green fluorescence; series mostly up to 76.8 µM; note: nearly all actives have a fitted effect of over 35% in size; note: potency is the fitted concentration of half-maximal effect
Procedure, shortened: as §5

[20] = A CellTox Green Cytotoxicity Assay to monitor cytotoxicity in HepG2 cells - 32 hour (AID 1224883); settings: CellTox Green fluorescence; series mostly up to 76.8 µM; note: nearly all actives have a fitted effect of over 50% in size; note: potency is the fitted concentration of half-maximal effect
Procedure, shortened: as §5
% is set by controls: 0 for no effect and ±100 for the full control effect.

With `COc1ccc([N+](=O)[O-])cc1[N+](=O)[O-]` the viability change, negative = cytotoxic [1] was inactive: -0.488%, the Potency [2] was “inactive” and the activation [3] was inactive: -1.24%. For the same compound, the activation [4] was inactive: 8.23%, the activity change, negative = cytotoxicity [5] was inactive: -0.179% and the activity change, positive = activation [6] was inactive: -3.37%. The activity change, negative = cytotoxicity [7] was inactive: -9.03%, the activity change, negative = cytotoxic [8] was inactive: 0.515% and the Potency [9] was “inactive”. The activity change, negative = cytotoxic [10] was inactive: 2.25%, the Potency [11] was “inactive” and the activity change, negative = cytotoxicity [12] was inactive: 5.11%. For the same compound, the viability change, negative = cytotoxic [13] was inactive: -20%, the Potency [14] was “inactive” and the activity change, negative = cytotoxic [15] was inactive: -2.22%. The Potency [16] was “inactive”, the Potency [17] was “inactive” and the activity change, negative = cytotoxicity [18] was inactive: 13.4%. The Potency [19] was “inactive” and the Potency [20] was “inactive”.
For `Cc1c([N+](=O)[O-])cccc1[N+](=O)[O-]`, the viability change, negative = cytotoxic [1] was inactive: 0.736% and inactive: 5.27%, the Potency [2] was “inactive” and the activation [3] was inactive: -1.83% and inactive: -1.52%. For the same compound, the activation [4] was inactive: -1.1%, the activity change, negative = cytotoxicity [5] was inactive: -6.38% and inactive: 0.184% and the activity change, positive = activation [6] was inactive: -0.169% and inactive: 1.48%. The activity change, negative = cytotoxicity [7] was inactive: 0.654% and inactive: 0.744%, the Potency [9] was “inactive” and the activity change, negative = cytotoxic [10] was inactive: 6.04% and inactive: 0.712%. For the same compound, the Potency [11] was “inactive”, the activity change, negative = cytotoxicity [12] was inactive: -2.66% and inactive: 10.1% and the viability change, negative = cytotoxic [13] was inactive: 2.67% and inactive: 2.76%. The Potency [14] was “inactive”, the activity change, negative = cytotoxic [15] was inactive: 2.13% and inactive: 3.46% and the Potency [16] was “inactive”. For the same compound, the Potency [17] was “inactive”, the activity change, negative = cytotoxicity [18] was inactive: -0.0348% and inactive: 19% and the Potency [19] was “inactive”. The Potency [20] was “inactive”.
In the case of `O=[N+]([O-])[O-].[NH4+]`, the viability change, negative = cytotoxic [1] was inactive: 3.37% and inactive: 0.685%, the activity change, negative = cytotoxicity [5] was inactive: 0.546% and inactive: 3.42% and the activity change, negative = cytotoxic [8] was inactive: 2.73% and inactive: 0.791%. The Potency [9] was “inactive and active: 27.5 µM”, the activity change, negative = cytotoxic [10] was inactive: 3.85% and inactive: 0.401% and the Potency [11] was “inactive and active: 38.9 µM”. The activity change, negative = cytotoxicity [12] was inactive: 5.03% and inactive: 9.95%, the viability change, negative = cytotoxic [13] was inactive: 1.49% and inactive: 2.07% and the Potency [16] was “inactive and active: 27.5 µM”. The Potency [17] was “inactive and active: 38.9 µM”, the activity change, negative = cytotoxicity [18] was inactive: -3.92% and inactive: 3.36% and the Potency [19] was “inactive and active: 38.9 µM”. The Potency [20] was “inactive and active: 43.6 µM”.
For `O=[N+]([O-])OCC(CO[N+](=O)[O-])(CO[N+](=O)[O-])CO[N+](=O)[O-]`, the viability change, negative = cytotoxic [1] was inactive: 5.79%, the Potency [2] was “inactive” and the activation [3] was inactive: 1.73%. The activation [4] was inactive: -0.879%, the activity change, negative = cytotoxicity [5] was inactive: -0.0141% and the activity change, positive = activation [6] was inactive: -4.07%. The activity change, negative = cytotoxicity [7] was inactive: -1.38%, the activity change, negative = cytotoxic [8] was inactive: -2.51% and the Potency [9] was “inactive”. For the same compound, the activity change, negative = cytotoxic [10] was inactive: 0.488%, the activity change, negative = cytotoxicity [12] was inactive: -2.44% and the viability change, negative = cytotoxic [13] was inactive: 4.45%. The activity change, negative = cytotoxic [15] was inactive: -0.023%, the Potency [16] was “inactive” and the Potency [17] was “inactive”. The activity change, negative = cytotoxicity [18] was inactive: 5.93%, the Potency [19] was “inactive” and the Potency [20] was “inactive”.
In the case of `N=C(N)N[N+](=O)[O-]`, the Potency [2] was “inactive”, the activation [4] was inactive: 0.85% and the activity change, negative = cytotoxicity [5] was inactive: -0.338%. The activity change, positive = activation [6] was inactive: -3.9%, the activity change, negative = cytotoxicity [7] was inactive: 0.0338% and the activity change, negative = cytotoxic [8] was inactive: -5.06%. The Potency [9] was “inactive”, the activity change, negative = cytotoxic [10] was inactive: 2.75% and the Potency [11] was “inactive”. For the same compound, the activity change, negative = cytotoxicity [12] was inactive: -9.89%, the viability change, negative = cytotoxic [13] was inactive: -0.0372% and the Potency [14] was “inactive”. For the same compound, the activity change, negative = cytotoxic [15] was inactive: 1.05%, the Potency [16] was “inactive” and the Potency [17] was “inactive”. The activity change, negative = cytotoxicity [18] was inactive: -12.2%, the Potency [19] was “inactive” and the Potency [20] was “inactive”.
